In US20200283493A1, “Novel Insulin Derivatives and the Medical Uses Hereof” (Novo Nordisk A/S, priority 2015, published 2020):

How the values were obtained:
[1] = Chemical stability: HMWP by size exclusion chromatography; type: physicochemical; conditions: zinc-free formulation
Experimental: (§1) Zinc-free insulin analogues were dissolved in aqueous solution, which in the final formulation contained 0.6 mM insulin analogue, 16 mM m-cresol, 16 mM phenol, and appropriate amounts of nicotinamide and glycerol, and the pH was adjusted to 7.3-7.5 (measured at room temperature) using 1 N hydrochloric acid/1 N NaOH. Water was added to the final volume and the solution was sterile-filtered through a 0.2 μm filter. The formulation was filled into 2 ml vials and sealed using crimp caps.
Each analogue preparation was incubated at 5, 25 and 37° C. in 2 ml vials.

[2] = ThT fibrillation assay, physical stability of zinc-free preparations; type: physicochemical; conditions: zinc-free Formulation A (2.0% glycerol), 37° C., 960 rpm
Experimental: as §1
Samples were prepared freshly before each assay.
The temperature was adjusted to 37° C. […] Fluorescence measurement was done using excitation through a 444 nm filter and measurement of emission through a 485 nm filter. […] Between each measurement, the plate was shaken and heated as described.

[3] = Chemical stability: purity by reverse phase chromatography (UPLC); type: physicochemical; conditions: zinc-free formulation
Experimental: as §1
Elution was performed with a mobile phase consisting of the following: A: 10% (v/v) acetonitrile, 100 mM di-ammonium hydrogen phosphate, pH 3.6, and B: 80% (v/v) acetonitrile. […] Each analogue preparation was incubated at 5, 25 and 37° C. in 2 ml vials. At defined times the insulin related impurities of the preparations was measured.

[4] = Subcutaneous PK profile in Sprague Dawley rats; type: in vivo; conditions: sc 25 nmol/kg, +3Zn/hex formulation
Experimental: In order to compare the profiles of the insulin derivatives of the invention to the profiles of the analogues of the prior art, the analogues of the invention are tested in this protocol using zinc-free formulations, and the analogues of the prior art are tested using 3 zinc ions per hexamer. This is to obtain the fastest PK profiles obtainable in clinically useful (i.e. chemically and physically stable) formulations.
Male Sprague-Dawley rats, ˜400 grams, are used for these experiments. The rats are not fasted prior to testing. During the three hours study period, the rats have free access to water but not to food. […] The rats are dosed subcutaneously (25 nmol/kg; 600 μM formulation of insulin derivative) in the neck using a NovoPen Echo® mounted with a Softfine® 12 mm needle. Plasma concentrations of glucose and insulin derivatives are quantified using a BIOSEN analyser and immuno assays/LCMS analysis, respectively.

B29K(N(eps)hexadecanedioyl-Glu-2×OEG), desB30 Human Insulin [PA 1]
HMWP content, 2 weeks 37° C. ([1]; 2 weeks 37° C.): 3.7%
HMWP delta-value from start, 2 weeks 37° C. ([1]; 2 weeks 37° C.): (+1.5%)
HMWP content, 5 weeks 37° C. ([1]; 5 weeks 37° C.): 5.7%
HMWP delta-value from start, 5 weeks 37° C. ([1]; 5 weeks 37° C.): (+3.5%)
HMWP content, Start ([1]; start): 2.2%
Lag time (h) in ThT assay [2]: 1 h
Purity delta-value from start, 2 weeks 37° C. ([3]; 2 weeks 37° C.): (−8.5%)
Purity, 2 weeks 37° C. ([3]; 2 weeks 37° C.): 86.0%
Purity delta-value from start, 5 weeks 37° C. ([3]; 5 weeks 37° C.): (−19.2%)
Purity, 5 weeks 37° C. ([3]; 5 weeks 37° C.): 75.3%
Purity, Start ([3]; start): 94.5%
Tmax [4]: 1 h
